The chains behind the UniProt entries cited, without tags or fusion partners.
UniProt P18031, whole entry, looked up: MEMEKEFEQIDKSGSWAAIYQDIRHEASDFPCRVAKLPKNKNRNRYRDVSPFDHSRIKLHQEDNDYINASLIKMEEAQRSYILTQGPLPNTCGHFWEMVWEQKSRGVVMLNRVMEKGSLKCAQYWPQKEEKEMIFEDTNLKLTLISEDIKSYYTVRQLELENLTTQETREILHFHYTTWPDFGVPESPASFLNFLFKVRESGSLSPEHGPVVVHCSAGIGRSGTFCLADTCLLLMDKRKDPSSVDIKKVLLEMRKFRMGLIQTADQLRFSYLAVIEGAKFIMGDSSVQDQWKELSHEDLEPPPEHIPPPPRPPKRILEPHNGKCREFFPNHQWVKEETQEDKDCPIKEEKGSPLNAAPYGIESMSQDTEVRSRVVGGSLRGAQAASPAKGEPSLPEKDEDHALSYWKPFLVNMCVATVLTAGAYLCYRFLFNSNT

According to article doi:10.1101/472670v4 (biorxiv, 2019):

molecular target: PTP1B (human recombinant, kit BML-AK822) (Homo sapiens, UniProt P18031); test: colorimetric malachite green; format: biochemical; details: IR5 phosphopeptide substrate; 30 min; 1% DMSO

| pIC50 | SMILES |
| --- | --- |
| 5.12 | COc1ccc(-c2csc(N(C(=O)c3ccc(Cl)cc3)c3cc(OC)ccc3OC)n2)cc1 |
| 5.13 | COc1ccc(-c2csc(N(C(=O)CCc3ccccc3)c3cc(OC)ccc3OC)n2)cc1 |
| 5.11 | COc1ccc(OC)c(N(C(=O)Cc2ccccc2)c2nc(-c3ccc(C)cc3)cs2)c1 |
| 5.20 | COc1ccc(-c2csc(N(C(=O)Cc3ccccc3)c3cc(OC)ccc3OC)n2)cc1 |

pIC50: −log10 of the molar value.
